We go through 8 molecules from patent US8703768B2, “Nitrogen containing heteroaryl compounds” (Hoffmann-La Roche Inc., priority 2010, dated 2014).

Sequences of proteins named here, by UniProt entry; tags and fusion partners are left off. A line that says so, or that is headed by a name, gives the form on record, which may keep a tag or linker.
UniProt Q9Y233, other isoform, or with tags, fused parts or gaps: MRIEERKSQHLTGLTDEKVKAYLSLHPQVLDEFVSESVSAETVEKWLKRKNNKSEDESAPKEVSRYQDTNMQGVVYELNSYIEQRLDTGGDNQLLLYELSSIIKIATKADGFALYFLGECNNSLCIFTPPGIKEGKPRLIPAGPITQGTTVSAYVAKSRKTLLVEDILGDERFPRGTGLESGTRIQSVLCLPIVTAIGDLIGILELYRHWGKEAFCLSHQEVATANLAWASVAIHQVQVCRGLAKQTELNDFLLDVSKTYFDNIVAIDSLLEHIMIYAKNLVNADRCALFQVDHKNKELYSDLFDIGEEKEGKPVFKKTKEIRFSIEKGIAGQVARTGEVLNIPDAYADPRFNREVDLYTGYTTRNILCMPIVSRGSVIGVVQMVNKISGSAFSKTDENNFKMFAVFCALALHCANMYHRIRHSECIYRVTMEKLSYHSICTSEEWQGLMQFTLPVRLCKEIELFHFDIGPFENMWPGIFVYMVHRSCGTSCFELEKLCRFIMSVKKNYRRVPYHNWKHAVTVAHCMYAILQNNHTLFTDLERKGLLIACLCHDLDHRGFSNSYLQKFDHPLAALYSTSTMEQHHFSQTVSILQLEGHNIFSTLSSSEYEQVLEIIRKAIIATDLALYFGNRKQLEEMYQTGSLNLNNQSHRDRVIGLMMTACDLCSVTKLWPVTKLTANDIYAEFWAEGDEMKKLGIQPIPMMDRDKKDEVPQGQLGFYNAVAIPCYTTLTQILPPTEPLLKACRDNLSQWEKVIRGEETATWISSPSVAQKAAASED

The target in the experiment is human PDE10A (Homo sapiens (Human), UniProt Q9Y233). The experiment is described as follows: human PDE10A full length Scintillation Proximity Assay (SPA). It counts as biochemical. The following applies: 50 nM cGMP and 50 nM [3H]-cGMP, 20 minutes at room temperature; read-out: PDE10A inhibition IC50. On the procedure: The following test was carried out in order to determine the activity of the compounds of the present invention.
The human PDE10A full length assay was performed in 96-well micro titer plates. […] Non-specific activity was tested without the enzyme. The reaction was initiated by the addition of the substrate solution (cGMP and [^3H]-cGMP) and allowed to progress for 20 minutes at room temperature. The reaction was terminated by adding 25 μl of YSi-SPA scintillation beads (GE Healthcare, cat. # RPNQ0150) in 18 mM zinc sulphate solution (stop reagent). After 1 h under shaking, the plate was centrifuged one minute at 170 g to allow beads to settle. Afterwards, radioactive counts were measured on a Perkin Elmer TopCount Scintillation plate reader.

Consider `CC(C)(O)CNC(=O)c1c(F)cccc1NC(=O)c1nc(C2CC2)cnc1Nc1cncnc1` [Example 310, 6-Cyclopropyl-3-(pyrimidin-5-ylamino)-pyrazine-2-carboxylic acid [3-fluoro-2-(2-hydroxy-2-methyl-propylcarbamoyl)-phenyl]-amide], for which the concentration for half-maximal inhibition (IC50) – broadly, the concentration at which inhibition is half-maximal – was 9.8 nM.

As for `Cn1cc(NC(=O)c2nc(C3CC3)ccc2Nc2cncnc2)c(C(=O)NCCO)n1` [Example 39, 6-Cyclopropyl-3-(pyrimidin-5-ylamino)-pyridine-2-carboxylic acid [3-(2-hydroxy-ethylcarbamoyl)-1-methyl-1H-pyrazol-4-yl]-amide], the half-inhibitory concentration (IC50) was found to be 8.2 nM.

`O=C(Nc1cnccc1C(=O)N1CC2(COC2)C1)c1nc(C2CC2)ccc1Nc1cncnc1` [Example 88, 6-Cyclopropyl-3-(pyrimidin-5-ylamino)-pyridine-2-carboxylic acid [4-(2-oxa-6-aza-spiro[3.3]heptane-6-carbonyl)-pyridin-3-yl]-amide]: the IC50 was 571 nM.

`CNC(=O)c1nn(C)cc1NC(=O)c1nc(CC(C)C)cnc1Nc1cncnc1` [Example 104, 6-Isobutyl-N-(1-methyl-3-(methylcarbamoyl)-1H-pyrazol-4-yl)-3-(pyrimidin-5-ylamino)pyrazine-2-carboxamide]: the IC50 was found to be 11.3 nM.

Take `Cn1cc(NC(=O)c2nc(C3CC3)ccc2Nc2cncnc2)c(C(=O)N2CCCC2(C)C)n1` [Example 52, 6-Cyclopropyl-3-(pyrimidin-5-ylamino)-pyridine-2-carboxylic acid [3-(2,2-dimethyl-pyrrolidine-1-carbonyl)-1-methyl-1H-pyrazol-4-yl]-amide]: the concentration for half-maximal inhibition (IC50) came to 8.2 nM.

`Cn1ncc(NC(=O)c2nc(C3CC3)cnc2Nc2cncnc2)c1C(=O)NC1CCOC1` (centres unmarked) [Example 141, 6-Cyclopropyl-3-(pyrimidin-5-ylamino)-pyrazine-2-carboxylic acid [1-methyl-5-(tetrahydro-furan-3-ylcarbamoyl)-1H-pyrazol-4-yl]-amide]: the IC50 was found to be 3.5 nM.

For the molecule `Cn1ncc(NC(=O)c2nc(C3CC3)cnc2Nc2cncnc2)c1C(=O)N[C@@H]1CCOC1` [Example 280, 6-Cyclopropyl-3-(pyrimidin-5-ylamino)-pyrazine-2-carboxylic acid {1-methyl-5-[(R)-(tetrahydro-furan-3-yl)carbamoyl]-1H-pyrazol-4-yl}-amide], the IC50 was determined as 3.5 nM.

For `CNC(=O)c1c(NC(=O)c2nc(C3CC3)cnc2Nc2cccnc2)cnn1C` [Example 217, 6-Cyclopropyl-3-(pyridin-3-ylamino)-pyrazine-2-carboxylic acid (1-methyl-5-methylcarbamoyl-1H-pyrazol-4-yl)-amide], the 50% inhibitory concentration (IC50) was 11.3 nM.
